Measurements: ChEMBL document CHEMBL5034034, “A Series of Novel, Highly Potent, and Orally Bioavailable Next-Generation Tricyclic Peptide PCSK9 Inhibitors” (J Med Chem, 2021)

Protein sequences, listed by entry. Tags and fused reporters are not part of them. Residues count along the entry.
UniProt Q8NBP7, 31-152 limits assumed: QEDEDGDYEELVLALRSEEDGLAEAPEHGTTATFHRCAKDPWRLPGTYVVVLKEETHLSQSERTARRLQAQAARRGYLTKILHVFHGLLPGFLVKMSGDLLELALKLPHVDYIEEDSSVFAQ
UniProt Q8NBP7, 153-692 limits assumed: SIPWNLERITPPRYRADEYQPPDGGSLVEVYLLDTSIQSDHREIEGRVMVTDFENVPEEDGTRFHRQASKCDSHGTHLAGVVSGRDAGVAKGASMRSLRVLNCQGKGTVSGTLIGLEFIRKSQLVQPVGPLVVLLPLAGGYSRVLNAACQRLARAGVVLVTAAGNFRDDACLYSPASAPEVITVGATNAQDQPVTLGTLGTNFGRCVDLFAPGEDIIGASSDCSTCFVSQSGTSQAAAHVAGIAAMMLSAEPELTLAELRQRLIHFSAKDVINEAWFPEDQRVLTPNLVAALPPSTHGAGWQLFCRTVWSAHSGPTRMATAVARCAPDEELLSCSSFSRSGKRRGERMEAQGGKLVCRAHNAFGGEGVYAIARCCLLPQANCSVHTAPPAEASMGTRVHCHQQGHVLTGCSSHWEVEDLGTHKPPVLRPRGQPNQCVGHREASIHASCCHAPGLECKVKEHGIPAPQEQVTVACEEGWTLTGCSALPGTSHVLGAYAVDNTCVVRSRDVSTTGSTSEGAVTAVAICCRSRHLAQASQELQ

Target: Proprotein convertase subtilisin/kexin type 9 (Homo sapiens, UniProt Q8NBP7)
Assay: Inhibition of human PCSK9 using Alexa Fluor […] as substrate incubated for 2 hrs by FRET assay

For `COc1ccc(C[C@@H]2NC(=O)[C@H]([C@@H](C)OC)NC(=O)[C@@H]3CC/C=C/COc4cccc(c4)C[C@H](NC(=O)[C@@H](C)NC(=O)[C@H](C)NC(=O)CCSCc4cccc(c4)CSCCNC(=O)[C@]4(C)CCCN4C2=O)C(=O)N[C@@H](Cc2c[nH]c4ccc(F)cc24)C(=O)N3C)cc1`, which Ki is on record?
The Ki was 40.7 nM.
